# Values quoted from earlier work in patent US20060229261A1, “Acarbose methods and formulations for treating chronic constipation” (priority 2005, published 2006).
# Conditions: in vivo; cited from earlier work
smiles,measurement,value
C[C@H]1O[C@H](O[C@H]2[C@H](O)[C@@H](O)[C@@H](O[C@H]3[C@H](O)[C@@H](O)C(O)O[C@@H]3CO)O[C@@H]2CO)[C@H](O)[C@@H](O)[C@@H]1N[C@H]1C=C(CO)[C@@H](O)[C@H](O)[C@H]1O (stereo partly shown) [acarbose],oral dose absorbed as parent drug or active metabolite,about 2%
